Consider 56 compounds from PubChem BioAssay AID1974 (The Scripps Research Institute Molecular Screening Center, 2009).

The chains behind the UniProt entries cited, without tags or fusion partners.
UniProt P78417, whole entry: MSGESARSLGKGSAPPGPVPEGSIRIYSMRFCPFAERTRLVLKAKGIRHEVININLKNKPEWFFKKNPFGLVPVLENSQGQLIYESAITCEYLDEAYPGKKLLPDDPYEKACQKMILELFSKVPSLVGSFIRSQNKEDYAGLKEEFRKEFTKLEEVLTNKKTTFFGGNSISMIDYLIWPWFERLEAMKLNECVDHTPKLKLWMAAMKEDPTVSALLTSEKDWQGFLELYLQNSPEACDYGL

This is a selection; strong and weak results do not stand in their true shares. The source made the active and inactive calls.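 The calls were made as follows: active = inhibition above the campaign mean inhibition plus 3 SD (cut at about 35% in these data); inactive = the rest.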

This assay addresses Glutathione S-transferase omega-1 (Homo sapiens) (UniProt P78417). Put plainly: human GSTO1 enzyme inhibition – biochemical, fluorescence polarization, counter-screen for RBBP9 inhibitor project, primary screen (AID 1974).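 Also: 0% = GSTO1-1 with DMSO and 100% = wells lacking GSTO1-1 enzyme.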 The following applies: recombinant GSTO1, activity-based probe fluorescence polarization; at 5.96 µM; active compounds read high. (Polarisation of emitted light reports the rotation of a fluorescent probe.)
In the case of `N#CC1(Nc2ccccc2)CCN(CCc2ccccc2)CC1`, the inhibition is inactive: 11.5%. The result for `CCN1CCC(Nc2ccc(Cl)cc2)CC1` reads inactive: 0.02%; that for `O=C(NCC1(N2CCCCC2)CCCCC1)c1cccc([N+](=O)[O-])c1`, inactive: 2.06%. On to `O=C(NCC1(N2CCCCC2)CCCCC1)c1ccc(OC(F)F)cc1`, for which the inhibition was inactive: -3.95%. The same measure for `COc1cc(C(=O)NCC2(N3CCCCC3)CCCCC2)ccc1OC(F)F`: inactive: -0.09%; for `O=C(NCC1(N2CCOCC2)CCCCC1)c1cc(=O)[nH]c2ccccc12`: inactive: -4.3%. `CN1CCN(CCOC(=O)C(O)(c2ccccc2)c2ccccc2)CC1`: the inhibition is inactive: 0.18%. Consider `COc1ccc(NC2CCN(C(=O)OC(C)(C)C)CC2)cc1`, for which the inhibition was inactive: 9.07%. As to `O=C(NCC1(N2CCCCC2)CCCCC1)c1cccc(C(F)(F)F)c1`, the inhibition is inactive: 0.3%. On to `COc1cc(OC)c(C(=O)NCC2(N(C)C)CCCCC2)cc1OC`, for which the inhibition is inactive: 1.63%. Turning to `CC(C)c1ccc(NC2CCN(C(=O)OC(C)(C)C)CC2)cc1`, the inhibition was inactive: 0.15%.

Turning to `CN(C)c1cccc(C(=O)NCC2(N3CCCCC3)CCCCC2)c1`, the inhibition was inactive: 13%. Take `COc1ccc(CN(CCCl)CCCl)cc1Cl`: the inhibition was inactive: -5.83%. Turning to `CN1CCC(Nc2cccc(F)c2)CC1`, the inhibition is inactive: -1.99%. The same measure for `CSc1ccccc1C(=O)NCC1(N2CCCCC2)CCCCC1`: inactive: 2.05%; for `COc1ccc(C(=O)NCC2(N3CCCCC3)CCCCC2)c(OC)c1OC`: inactive: -1.1%; for `CC(C)(C)OC(=O)N1CCC(N(C(=O)c2ccccc2)c2ccc(F)cc2)CC1`: inactive: -2.51%. The same measure for `COc1ccc(C(=O)NCC2(N3CCCCC3)CCCCC2)cc1`: inactive: 10.3%; for `O=C(NCC1(N2CCCCC2)CCCCC1)c1cccs1`: inactive: 6.15%; for `O=C(NCC1(N2CCCCC2)CCCCC1)c1ccc(=O)[nH]c1`: inactive: 4.09%.

As to `N#CC1(Nc2ccccc2)CCN(Cc2ccccc2)CC1`, the inhibition is inactive: 10.5%. As to `O=C(OC1CN2CCC1CC2)C1c2ccccc2Oc2ccccc21` (stereo unspecified), the inhibition was inactive: -6.07%. On to `CCOC(=O)N1CCC(Nc2ccc(OC)cc2)CC1`, for which the inhibition was inactive: -1.38%. For the compound `Cc1cc(C)cc(N(C(=O)c2ccccc2)C2CCN(C(=O)OC(C)(C)C)CC2)c1`, the inhibition was inactive: 5.98%. Consider `O=C(NCC1(N2CCCCC2)CCCCC1)c1ccc(Cl)nc1`, for which the inhibition was inactive: 7.96%. On to `O=C(NCC1(N2CCOCC2)CCCCC1)c1cc2ccccc2o1`, for which the inhibition was inactive: 1.65%.

For `COc1ccc(NC2CCN(CCc3ccccc3)CC2)c(OC)c1`, the inhibition is inactive: 0.2%. `O=C(NCC1(N2CCCCC2)CCCCC1)c1ccc(F)cc1`: the inhibition was inactive: -3.36%. The result for `CCOc1ccc(C)cc1CN(CCCl)CCCl` reads inactive: -0.98%; that for `Cc1ccc(OCC(C)C)c(CN(CCCl)CCCl)c1`, inactive: 4.51%; that for `CCOC(=O)N1CCC(Nc2cccc(C)c2)CC1`, inactive: 4.06%. The same measure for `Fc1ccccc1NC1CCN(Cc2ccccc2)CC1`: inactive: -8.64%. `Cc1ccc(C(=O)NCC2(N3CCCCC3)CCCCC2)o1`: the inhibition was inactive: 4.79%. The same measure for `COc1cc(OC)cc(C(=O)NCC2(N3CCCCC3)CCCCC2)c1`: inactive: 1.33%; for `CN(C)c1ccc(C(=O)NCC2(N3CCCCC3)CCCCC2)cc1`: inactive: 2.82%; for `CCN1CCC(Nc2cccc(F)c2)CC1`: inactive: 2.57%. For `O=C(O)C1(Nc2ccccc2)CCN(Cc2ccccc2)CC1`, the inhibition was inactive: -1.56%. Regarding `CC(C)(C)OC(=O)N1CCC(Nc2ccccc2)CC1`, the inhibition was inactive: -7.93%. The same measure for `CCCOc1ccc(C(=O)NCC2(N(C)C)CCCCC2)cc1`: inactive: -0.37%; for `CN1CCC(Nc2ccc(F)c(Cl)c2)CC1`: inactive: 0.14%; for `CCOc1ncccc1C(=O)NCC1(N2CCOCC2)CCCCC1`: inactive: 4.72%.

`CN1CCC(Nc2ccc(Cl)cc2)CC1`: the inhibition was inactive: 2.44%.

As for `CCCOc1ccc(C)cc1CN(CCCl)CCCl`, the inhibition was inactive: -0.64%.

As for `COc1cc(OC)cc(C(=O)NCC2(N3CCOCC3)CCCCC2)c1`, the inhibition is inactive: 5.04%. As to `COc1cccc(C(=O)N(c2cc(C)cc(C)c2)C2CCN(C(=O)OC(C)(C)C)CC2)c1`, the inhibition is inactive: 1.71%. Turning to `CCC(CO)(C(=O)OC1CN2CCC1CC2)c1ccccc1` (stereo unspecified), the inhibition is inactive: 0.38%. In the case of `COc1ccc(C(=O)NCC2(N3CCOCC3)CCCCC2)cc1OC`, the inhibition was inactive: 1.44%. Turning to `CCc1cc(C(=O)NCC2(N3CCCCC3)CCCCC2)sc1C`, the inhibition is inactive: -10.2%. On to `O=C(OC1CN2CCC1CC2)C1c2ccccc2C=Cc2ccccc21` (stereo unspecified), for which the inhibition is inactive: 5.97%.

Regarding `CCOC(=O)N1CCC(Nc2ccc(C)cc2)CC1`, the inhibition is inactive: 7.15%. For the compound `N/C(=N\O)c1c(N)no[n+]1[O-]`, the inhibition is inactive: 4.2%.

As to `N#Cc1ccc(C(=O)NCC2(N3CCCCC3)CCCCC2)cc1`, the inhibition was inactive: -2.63%. Turning to `CC(C)(C)OC(=O)N1CCC(N(C(=O)c2ccccc2)c2ccc(Cl)cc2)CC1`, the inhibition is inactive: 5.52%.

In the case of `CN(C)C1(CNC(=O)c2cccc(C#N)c2)CCCCC1`, the inhibition is inactive: 1.02%. The same measure for `CCCN1CCC(Nc2cc(OC)cc(OC)c2)CC1`: inactive: 4.28%; for `c1ccc(CN2CCC(Nc3ccccc3)CC2)cc1`: inactive: 5.41%.

In general, inhibition refers to the change of the read-out against control, counted positive when it falls.
